In patent publication US20190389933A1 (published 2019) one finds Kd data, which are given here for one molecule.

As a reminder, the Kd is the constant that tells how readily two partners part at equilibrium. Higher therefore signals weaker binding.

This assay has as its target 21480B. In words: Octet.

B1: PD-1 (15593) (receptor)
chain: LDSPDRPWNPPTFSPALLVVTEGDNATFTCSFSNTSESFVLNWYRMSPSNQTDKLAAFPEDRSQPGQDCRFRVTQLPNGRDFHMSVVRARRNDSGTYLCGAISLAPKAQIKESLRAELRVTERRAEVPTAHPSPSPRPAGQFQ
B1 returned a Kd of 1.91 nM.
